# Data from PubChem BioAssay AID624466 (The Scripps Research Institute Molecular Screening Center, 2012).
# Protein sequences, listed by entry. Tags and fused reporters are not part of them.
# UniProt Q96RJ0, whole entry: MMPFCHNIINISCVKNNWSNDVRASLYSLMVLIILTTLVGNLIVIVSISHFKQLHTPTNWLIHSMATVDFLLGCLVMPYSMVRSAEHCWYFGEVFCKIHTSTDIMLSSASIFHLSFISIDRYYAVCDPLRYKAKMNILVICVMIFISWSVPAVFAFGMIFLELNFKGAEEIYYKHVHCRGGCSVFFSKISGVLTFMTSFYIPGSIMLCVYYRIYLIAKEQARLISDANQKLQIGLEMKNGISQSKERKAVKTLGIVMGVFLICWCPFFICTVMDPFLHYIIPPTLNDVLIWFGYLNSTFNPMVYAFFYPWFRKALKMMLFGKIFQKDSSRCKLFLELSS
# This is a selection; strong and weak results do not stand in their true shares. Activity calls are given as the source filed them.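 The calls were made as follows: active = inhibition above a per-plate cutoff, the mean inhibition of test compounds on that plate plus 3 SD (cut at about 49% in these data); inactive = the rest.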
# Molecular target: Trace amine-associated receptor 1 (Homo sapiens) (UniProt Q96RJ0)
# Assay: blockers of beta-PEA-driven TAAR1 calcium signal – Fluo-8 calcium fluorescence, CHO RD-HGA16 cells, primary screen (AID 624466);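 also: 0% = DMSO plus EC80 beta-PEA response and 100% = DMSO alone without agonist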
# Details: CHO RD-HGA16 TAAR1, Fluo-8 calcium fluorescence, antagonist; at 3 µM; hits give high values
row,Compound,inhibition
1,CCC(=O)N(c1ccccc1)C1(COC)CCN(CCn2nnn(CC)c2=O)CC1,inactive: -14.7%
2,CCC(=O)N(c1ccccc1)C1(COC)CCN(CCc2cccs2)CC1,inactive: 9.28%
